Laboratory results published in ChEMBL document CHEMBL1123653 (J Med Chem, 1987).

Amino acid sequences for entries named in this document (tags omitted). A change or cut given only in a name is not applied to a line headed by its entry.
UniProt P30994: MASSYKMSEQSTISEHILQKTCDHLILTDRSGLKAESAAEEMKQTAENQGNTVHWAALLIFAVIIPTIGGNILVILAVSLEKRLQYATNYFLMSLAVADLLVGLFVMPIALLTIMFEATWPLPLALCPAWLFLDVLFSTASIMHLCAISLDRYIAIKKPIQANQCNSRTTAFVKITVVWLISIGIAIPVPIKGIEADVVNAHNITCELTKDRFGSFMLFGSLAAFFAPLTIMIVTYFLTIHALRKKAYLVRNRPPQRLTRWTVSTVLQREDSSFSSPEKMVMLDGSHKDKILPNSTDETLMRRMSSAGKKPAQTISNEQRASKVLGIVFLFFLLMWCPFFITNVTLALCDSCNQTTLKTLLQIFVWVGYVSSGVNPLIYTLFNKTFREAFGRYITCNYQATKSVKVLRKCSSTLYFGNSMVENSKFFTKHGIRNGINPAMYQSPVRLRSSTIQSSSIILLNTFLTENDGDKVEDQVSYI
UniProt P08909: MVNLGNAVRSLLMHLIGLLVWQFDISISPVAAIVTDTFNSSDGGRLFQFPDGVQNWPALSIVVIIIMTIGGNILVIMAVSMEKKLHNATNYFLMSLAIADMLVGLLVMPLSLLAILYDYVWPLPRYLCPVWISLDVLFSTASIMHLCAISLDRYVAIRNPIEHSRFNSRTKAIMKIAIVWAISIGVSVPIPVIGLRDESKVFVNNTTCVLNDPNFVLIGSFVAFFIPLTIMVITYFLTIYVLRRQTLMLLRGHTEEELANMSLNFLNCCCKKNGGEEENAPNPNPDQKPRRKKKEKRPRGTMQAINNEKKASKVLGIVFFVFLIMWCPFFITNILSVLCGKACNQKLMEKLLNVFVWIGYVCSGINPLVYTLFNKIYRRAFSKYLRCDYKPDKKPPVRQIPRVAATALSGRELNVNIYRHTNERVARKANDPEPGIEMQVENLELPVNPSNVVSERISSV
UniProt P14842: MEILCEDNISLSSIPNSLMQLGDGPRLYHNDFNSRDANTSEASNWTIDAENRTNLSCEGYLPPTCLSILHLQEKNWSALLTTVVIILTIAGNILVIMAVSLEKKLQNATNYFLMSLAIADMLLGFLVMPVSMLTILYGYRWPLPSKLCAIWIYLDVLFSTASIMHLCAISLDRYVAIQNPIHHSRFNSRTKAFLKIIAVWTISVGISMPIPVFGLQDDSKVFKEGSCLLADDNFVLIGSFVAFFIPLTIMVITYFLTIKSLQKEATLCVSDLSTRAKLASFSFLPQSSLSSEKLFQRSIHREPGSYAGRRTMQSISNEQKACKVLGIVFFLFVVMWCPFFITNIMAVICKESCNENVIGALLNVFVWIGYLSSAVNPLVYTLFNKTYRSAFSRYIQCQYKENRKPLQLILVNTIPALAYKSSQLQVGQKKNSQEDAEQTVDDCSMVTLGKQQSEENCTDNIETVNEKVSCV
UniProt P28564, whole entry: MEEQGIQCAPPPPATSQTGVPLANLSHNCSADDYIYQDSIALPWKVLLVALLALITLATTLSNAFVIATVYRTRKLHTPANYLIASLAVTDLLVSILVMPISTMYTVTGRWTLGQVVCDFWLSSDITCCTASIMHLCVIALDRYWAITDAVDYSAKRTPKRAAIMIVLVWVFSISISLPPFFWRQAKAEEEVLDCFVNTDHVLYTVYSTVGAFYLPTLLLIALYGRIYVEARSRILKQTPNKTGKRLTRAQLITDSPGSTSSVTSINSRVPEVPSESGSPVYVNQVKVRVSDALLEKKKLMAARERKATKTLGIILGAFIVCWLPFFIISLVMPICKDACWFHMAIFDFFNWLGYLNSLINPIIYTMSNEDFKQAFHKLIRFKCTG

How the values were obtained:
[1] = target: Serotonin 2 (5-HT2) receptor (Rattus norvegicus, UniProt P30994+P08909+P14842)
[2] = target: 5-hydroxytryptamine receptor 1B (Rattus norvegicus, UniProt P28564)

SMILES	Ki [1]	Ki [2]
CCc1cc(OC)c(CC(C)N)cc1OC (centres undefined)	100 nM	
COc1cc(OC)c(OC)cc1CC(C)N (centres undefined)	1650 nM	
CCCN(CCC)C1CCc2cccc(O)c2C1 (centres undefined) [8-OH-DPAT]		63000 nM
O=C(CCCN1CCC2(CC1)C(=O)NCN2c1ccccc1)c1ccc(F)cc1 [SPIPERONE]	0.5 nM	
